This is a selection; strong and weak results do not stand in their true shares. Inconclusive results are not listed. Activity calls are given as the source filed them. Calls come from the whole dose curve; cell line not stated here.
Assay: qHTS for Antagonists of gsp, the Etiologic Mutation Responsible for Fibrous Dysplasia/McCune-Albright Syndrome: qHTS; note: nearly all actives have a fitted effect of over 65% in size
Settings: gsp-mutant cells, cAMP HTRF, 30 min; at 76.9 µM (top of the series) unless noted
% is set by controls: 0 for no effect and ±100 for the full control effect.

Row | SMILES | activity change, negative = inhibition
1 | O=[N+]([O-])c1cc(Oc2ccc([N+](=O)[O-])cc2C(F)(F)F)cc([N+](=O)[O-])c1 | inactive: -0.684%
2 | COc1ccc(N/C(=N/P(=O)(N2CCOCC2)N2CCOCC2)N2CCOCC2)cc1 | inactive: 9.08%
3 | Cc1c2c(nc3ccccc13)SC(C(Cl)Cl)C2 (stereo not drawn) | inactive: -29.8%
4 | Cc1cc(=O)[nH]c(N[N+](=O)[O-])n1 | inactive: -13.7%
5 | CCN(CC)CCCOC(=O)C(O)(c1ccccc1)c1ccccc1 | inactive: 10.3%
6 | O=C(OC1CN2CCC1CC2)C12CC3CC(CC(C3)C1)C2 (stereo not drawn) | inactive: 3.88%
7 | O=P1(N(CCCl)CCCl)Nc2ccccc2N1 | inactive: 2.24%
8 | O=P1(N(CCCl)CCCl)OCCCN1CCCl (stereo not drawn) | inactive: 13.8%
9 | COc1cc(I)ccc1[As](=O)(O)O | inactive: 2.55%
10 | ClCCSc1nnc(-c2cccnc2)o1 | inactive: 3.74%
11 | CCOC(=O)c1ccc(NP(C)(=O)Oc2ccccc2)cc1 (stereo not drawn) | inactive: 8.88%
12 | Cc1ccc(NP(C)(=O)Oc2ccccc2)c(C)c1 (stereo not drawn) | inactive: 7.87%
13 | CC(C)c1ccc(OP(=O)(Nc2ccccn2)Oc2ccccc2F)cc1 (stereo not drawn) | inactive: -4.39%
14 | COC(=O)C1(C)COP(=O)(N2CCCCCC2)OC1 (stereo not drawn) | inactive: 4.27%
15 | COc1ccccc1OP(C)(=O)Nc1ccc(C)cc1 (stereo not drawn) | inactive: 6.44%
16 | O=[N+]([O-])c1cc([N+](=O)[O-])c(-c2ccn[nH]2)s1 | inactive: 8.09%
17 | COc1ccc(OP(C)(=O)Nc2cccc(F)c2)cc1 (stereo not drawn) | inactive: 10.4%
18 | CCN(CC)C(=S)SC(NC=O)C(Cl)(Cl)Cl (stereo not drawn) | inactive: -1.71%
19 | O=C(OC1CN2CCC1CC2)c1cccc2[nH]cnc12 (stereo not drawn) | inactive: -6.58%
20 | CC(C)NC(=O)NP(=O)(Oc1ccccc1)Oc1ccccc1 | inactive: 9.14%
21 | COc1ccccc1OP(C)(=O)Nc1cc(Cl)ccc1C (stereo not drawn) | inactive: 5.44%

Row | SMILES | activity change, negative = inhibition
22 | Cc1cc(C)cc(OP(C)(N)=O)c1 (stereo not drawn) | inactive: -30.3%
23 | COc1cc(C(=O)NCC2(N3CCOCC3)CCCCC2)ccc1OCC(C)C | inactive: -2.97%
24 | O=[N+]([O-])c1ccc(-c2cc([N+](=O)[O-])c(O)c([N+](=O)[O-])c2)cc1 | inactive: -14.2%
25 | O=[As](O)(c1ccc(O)cc1)c1ccccc1O | inactive: 16.7%
26 | C[As](=O)(O)c1cccc(C(=O)O)c1 | inactive: 13.5%
27 | Cc1cccc(C)c1OP(C)(N)=O (stereo not drawn) | inactive: -6.49%
28 | CC(C)(C)c1ccc(OP(C)(=O)Nc2ccc(SC(F)(F)F)cc2)cc1 (stereo not drawn) | inactive: -24.5%
29 | Cc1ccc(OP(=O)(Nc2ccc([N+](=O)[O-])cn2)Oc2ccc(C)cc2)cc1 | inactive: 1.3%
30 | O=[N+]([O-])c1ccc2c(c1)C=Nc1ccccc1O2 | inactive: -8.36%
31 | CP(=S)(Nn1cnnc1)Oc1ccccc1 (stereo not drawn) | inactive: 8.21%
32 | CCOC(=O)Nc1cccc([As](=O)(O)O)c1 | inactive: -0.86%
33 | COc1ccccc1OP(C)(=O)Nc1ccccc1 (stereo not drawn) | inactive: 3.95%
34 | Cc1cc(SC(NC=O)C(Cl)(Cl)Cl)ncn1 (stereo not drawn) | inactive: 2.77%
35 | O=P(Nc1ccccn1)(c1cccc2ccccc12)c1cccc2ccccc12 | inactive: 4.16%
36 | O=[N+]([O-])c1ccc(Nc2ccc(Oc3ccc([N+](=O)[O-])cc3[N+](=O)[O-])cc2)c([N+](=O)[O-])c1 | inactive: 1.89%
37 | CP(=O)(Nc1ccccc1Br)Oc1ccccc1 (stereo not drawn) | inactive: 12.5%
38 | CCOC(=O)Nc1ccc([As](=O)(O)O)c(O)c1 | inactive: 12.1%
39 | CC1CCNP(=O)(N(CCCl)CCCl)O1 (stereo not drawn) | inactive: -5.26%
40 | Cc1cc(SC(NC(=O)c2ccccc2)C(Cl)(Cl)Cl)nc(C(C)C)n1 (stereo not drawn) | inactive: -3.28%
41 | CCCCOc1ccc(C(=O)NCC2(N3CCCCC3)CCCCC2)cc1OC | inactive: 11.7%
42 | O=C(OC1CN2CCC1CC2)c1cccc([N+](=O)[O-])c1 (stereo not drawn) | inactive: -4.57%

Row | SMILES | activity change, negative = inhibition
43 | CCOP(C)(=S)SCC(=O)NC(C)C(=O)O (stereo not drawn) | inactive: 3.71%
44 | O=[N+]([O-])c1cc([N+](=O)[O-])c(O)c([N+](=O)[O-])c1.c1ccc(Oc2ccncc2)cc1 | inactive: -2.98%
45 | CCOC(=O)c1ccc(NP(C)(=O)Oc2ccc(OC)cc2)cc1 (stereo not drawn) | inactive: -23.7%
46 | CCOC(=O)c1ccc(NC(=O)C(C)(CCl)SC)cc1 (stereo not drawn) | inactive: 9.35%
47 | CCC(C)N(CC(C)C)C(=S)SC(NC(C)=O)C(Cl)(Cl)Cl (stereo not drawn) | inactive: -3.4%
48 | CP(=O)(Nc1ccccn1)Oc1ccc(Cl)cc1 (stereo not drawn) | inactive: 1.86%
49 | CP(=O)(Oc1ccccc1)OC(c1ccccc1)C(F)(F)F (stereo not drawn) | inactive: 11.7%
50 | CP(=O)(Nc1ccc(SC(F)(F)F)cc1)Oc1ccc(Cl)cc1 (stereo not drawn) | inactive: 9.82%
51 | Cc1cccc(C)c1OP(C)(=O)Nc1ccc(SC(F)(F)F)cc1 (stereo not drawn) | inactive: 15.6%
52 | COP1(=S)c2c(C)nn(CCC#N)c2N=C(c2ccc(F)cc2)N1C (stereo not drawn) | inactive: 1.53%
53 | Cc1cc(C)cc(OP(C)(=O)Nc2ccc(SC(F)(F)F)cc2)c1 (stereo not drawn) | inactive: 5.63%
54 | O=C(Nc1ccncc1[N+](=O)[O-])c1ccc([N+](=O)[O-])cc1[N+](=O)[O-] | inactive: 0.197%
55 | CCc1ccc(OP(C)(=O)N2CCN(c3ccc([N+](=O)[O-])cc3)CC2)cc1 (stereo not drawn) | inactive: -14.6%
56 | CP(=O)(NC(=O)Nc1ccccc1)Oc1ccccc1 (stereo not drawn) | inactive: 5.74%
57 | O=C(COc1ccccc1)OC1CN2CCC1CC2 (stereo not drawn) | inactive: 3.35%
58 | O=[N+]([O-])c1cc([N+](=O)[O-])c(-c2cnn(-c3ccccc3)c2)c([N+](=O)[O-])c1 | inactive: 2.45%
59 | COc1ccccc1CNC(=O)COC(=O)C(O)(c1ccccc1)c1ccccc1 | inactive: 2.46%
60 | CN(C(=O)Cc1ccc(Cl)c(Cl)c1)[C@@H]1CCCC[C@H]1N1CCCC1 | inactive: 22.9%
61 | CC(C)/C=N\N=C(\N)N[N+](=O)[O-] | inactive: -1.19%
62 | CC1(CBr)Cn2c(nc3ccccc3c2=O)S1 (stereo not drawn) | inactive: 0.405%
63 | Cc1nc2ccc3ccccc3c2s1.O=[N+]([O-])c1cc([N+](=O)[O-])c(O)c([N+](=O)[O-])c1 | inactive: -23.9%
